The record followed here is paper PMC6400076 (Frontiers in Microbiology, 2019).

What is called Km is the substrate concentration at which the rate is half of its maximum. A word on the Vmax: it is the top rate of the reaction or transport when substrate is in excess. What is called kcat is the maximal rate divided by the concentration of active sites. One may read the kcat/Km as the second-order rate constant that governs catalysis at low substrate concentration.

This data set deals with O=P(O)(O)O. Put plainly: purified protein. The settings on record: 2 mM NAD+, 50 mM G3P, pH 8.5, 25°C.

With “SpGAPDH (Streptococcus pyogenes MGAS8232)”, the Km is 2900 ± 200 µM, the Vmax worked out at 2.07e+06 µM/min/mg, the kcat was found to be 3450 s⁻¹ and the kcat/Km was determined as 1.19e+06 M⁻¹ s⁻¹.
